Details: rat, microsomes

| CLH | Structure (SMILES) |
| --- | --- |
| > 500 µL/min/mg | O=C1c2ccccc2-c2c1sc1ccc(O)cc21 |
| > 500 µL/min/mg | COc1ccc2c(c1)C(=O)c1sc3ccc(O)cc3c1-2 |
| > 500 µL/min/mg | COc1cccc2c1C(=O)c1sc3ccc(O)cc3c1-2 |
